Molecular target: Muscarinic acetylcholine receptor M2 (Homo sapiens, UniProt P08172)
Assay: Agonist activity at human muscarinic M2 receptor expressed in CHO cells after 30 mins by GTPgamma35S binding assay
Type: functional, cell-based

The chains behind the UniProt entries cited, without tags or fusion partners.
UniProt P08172, whole entry: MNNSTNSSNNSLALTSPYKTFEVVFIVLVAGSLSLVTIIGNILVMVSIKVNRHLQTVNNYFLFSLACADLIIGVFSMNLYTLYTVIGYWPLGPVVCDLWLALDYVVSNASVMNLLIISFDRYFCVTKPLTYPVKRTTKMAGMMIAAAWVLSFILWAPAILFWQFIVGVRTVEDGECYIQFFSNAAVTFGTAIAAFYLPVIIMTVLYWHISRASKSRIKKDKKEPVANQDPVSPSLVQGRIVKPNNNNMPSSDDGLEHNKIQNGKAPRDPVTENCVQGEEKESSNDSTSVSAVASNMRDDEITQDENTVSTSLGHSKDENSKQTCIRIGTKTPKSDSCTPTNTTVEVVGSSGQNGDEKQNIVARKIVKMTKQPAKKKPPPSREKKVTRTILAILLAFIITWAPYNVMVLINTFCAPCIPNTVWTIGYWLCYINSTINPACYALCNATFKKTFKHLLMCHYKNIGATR

For `CCCCCCOc1nsnc1C1=CCCN(C)C1` [XANOMELINE], the EC50 was 121 nM.
